The list shows a part of the results, in another mix than the full data. Some results for these compounds are left out of this collection, so the calls shown say nothing about other tests. Results filed as inconclusive are left out. Active and inactive are the calls of the source. Calls follow the shape of the dose curve; as a rule, active = well fitted inhibition curve with a large enough effect; inconclusive = small, poorly fitted or top-dose-only effect, or another doubt; inactive = no such curve, though single readings can be large or run the other way.

Amino acid sequences for entries named in this document (tags omitted).
UniProt Q9UBT6, whole entry: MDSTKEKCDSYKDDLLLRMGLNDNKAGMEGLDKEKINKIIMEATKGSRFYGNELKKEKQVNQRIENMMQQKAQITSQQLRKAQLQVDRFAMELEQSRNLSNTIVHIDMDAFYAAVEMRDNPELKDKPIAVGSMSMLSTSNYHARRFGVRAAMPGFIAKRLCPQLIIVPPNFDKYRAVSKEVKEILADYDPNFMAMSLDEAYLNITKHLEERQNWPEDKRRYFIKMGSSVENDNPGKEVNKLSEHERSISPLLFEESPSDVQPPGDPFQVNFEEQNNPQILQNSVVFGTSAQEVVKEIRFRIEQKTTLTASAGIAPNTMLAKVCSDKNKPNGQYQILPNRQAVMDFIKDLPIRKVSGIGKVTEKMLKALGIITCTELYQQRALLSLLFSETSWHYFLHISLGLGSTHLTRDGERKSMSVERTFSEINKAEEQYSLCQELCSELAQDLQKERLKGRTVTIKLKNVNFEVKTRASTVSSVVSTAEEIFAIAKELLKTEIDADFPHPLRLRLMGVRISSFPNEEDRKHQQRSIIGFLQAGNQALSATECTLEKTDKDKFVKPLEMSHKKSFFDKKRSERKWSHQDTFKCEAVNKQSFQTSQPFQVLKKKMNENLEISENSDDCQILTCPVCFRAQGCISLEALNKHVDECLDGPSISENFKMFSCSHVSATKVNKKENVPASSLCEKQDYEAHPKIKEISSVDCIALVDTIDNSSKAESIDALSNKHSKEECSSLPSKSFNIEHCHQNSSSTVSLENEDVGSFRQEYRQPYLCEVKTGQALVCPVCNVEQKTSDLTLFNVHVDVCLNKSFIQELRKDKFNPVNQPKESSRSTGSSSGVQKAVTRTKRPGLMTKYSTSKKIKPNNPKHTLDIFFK

Our source for the activity, negative = inhibition values is PubChem BioAssay AID588579 (National Center for Advancing Translational Sciences (NCATS), 2011).
% is scaled to controls: 0 for no effect and ±100 for the full control effect.

In this assay the target is DNA polymerase kappa (Homo sapiens) (UniProt Q9UBT6). The assay can be described thus: qHTS for Inhibitors of Polymerase Kappa. Conditions: purified Pol kappa, fluorescent DNA synthesis assay, 10 min; at 107 µM (top of the series). As to the method: The processing and repair of DNA interstrand crosslinks (ICL) in eukaryotic cells are extremely complex, potentially involving multiple DNA repair and damage tolerance pathways, including homologous recombination, nucleotide excision repair, translesion synthesis (TLS), and cell cycle checkpoints.
To that end, in a collaboration between the Oregon Health & Science University and the NIH Chemical Genomics Center a 1536-well high-throughput screen was developed. This fluorescent screen was assayed against the NIH Molecular Libraries Small Molecule Repository (MLSMR) to discover inhibitors of Pol Kappa.
NIH Chemical Genomics Center [NCGC]
NIH Molecular Libraries Probe Centers Network [MLPCN]
Assay Submitter (PI): Stephen Lloyd, Oregon Health & Science University
Three microliters of reagents (buffer in column 3 and 4 as negative control and 10 nM Pol kappa in columns 1, 2, and 5-48) were dispensed into a 1536-well black solid-bottom plate. Compounds (23 nL) were transferred via Kalypsys pin tool equipped with 1536-pin array. The plates were then incubated for 15 min at room temperature, and 1 uL substrate (50 nM final concentration) were then added to start the reaction and kinetically read twice at 0 min and 10 min on the Viewlux reader
A general note: In qHTS, concentration-response curves come from the screen itself.
`O=C(CBr)c1ccc(Cl)cc1`: the activity, negative = inhibition was inactive: -7.5%.
Regarding `C=CCN1CCN(CCOC(=O)C(O)(c2ccccc2)c2ccccc2)CC1`, the activity, negative = inhibition was inactive: 11%.
Take `CC(C)N1C(=O)CC2(CCN(CCOC(=O)C(O)(c3ccccc3)c3ccccc3)CC2)C1=O`: the activity, negative = inhibition was inactive: -6.61%.
